Legend:
[1] = set-up: method as in PMID 21415539; conditions: water to 1-octanol; pH 7.4 of the aqueous phase; cited from earlier work
[2] = Cyclodextrin (SBE-β-CD)/buffer apparent partition coefficient of CBZ; type: physicochemical; conditions: 37 °C
Protocol: (§1) Additionally, for the sake of the reliable comparison of the partition within the micellar and cyclodextrin systems, the concentrations of the excipient (F127 or SBE-β-CD) on the X-axis were expressed in kg∙L^−1. From the results of the partition coefficients determinations, the thermodynamics of solubilization by F127 and SBE-β-CD was disclosed by the excess free Gibbs energy ( ΔGS37°C ) evaluation, using the equation:(12) ΔGS37°C=−RT·lnKexcipient/buf
(§2) In the case of cyclodextrins, the nonspecific interaction between the solute and the cavity of cyclodextrin takes place, and the solubilization process may be attributed to the partition of solutes from the aqueous buffer into the cyclodextrin cavity. In this work, the partition from the micellar pseudo phase (F127) to the aqueous buffer pH 6.8, as well as from SBE-β-CD to the buffer was studied using the plots of the linear dependences (Figure S4), plotted according to Equations (10) and (11). The calculations were conducted in two variants.

[3] = In vitro permeability, Franz diffusion cell, polydimethylsiloxane–polycarbonate membrane; type: in vitro ADME; conditions: PDS membrane, 37 °C
Protocol: (§3) The apparent permeability coefficients were measured at 37 °C with the help of a vertical-type Franz diffusion cell (PermeGear, Inc., Hellertown, PA, USA). The experimental setup was the same as it was described in our previous study, where the excess amount of the investigated substance was placed in glass cups with ground-in lids. The required volume of buffer pH 6.8 without and with a predetermined concentration of the excipient (F127 or SBE-β-CD in the present study) was added, and the suspension was mixed overnight and filtered to obtain a clear solution. The concentration of this solution was determined and used for the further calculation of the permeability coefficient. […] The membrane was mounted between the donor and receptor chambers of the Franz cell. The effective surface area of the membrane was 0.785 cm^2. Each experiment lasted 5 h. The donor solution was permanently mixing with a magnetic stirrer at a constant rate. The aliquots of the receptor solution (0.5 mL) were withdrawn every 30 min and promptly replaced with the same volume of the fresh buffer.
(§4) The apparent permeability coefficients were taken as the average values of no less than three replicas. […]

[4] = Micelle (F127)/buffer apparent partition coefficient of CBZ; type: physicochemical; conditions: 37 °C
Protocol: as §1, §2

[5] = Free CBZ fraction estimation; type: physicochemical; conditions: F127 1.83 mmol·L-1
[6] = In vitro permeability, Franz diffusion cell, regenerated cellulose membrane; type: in vitro ADME; conditions: RC membrane, 37 °C
Protocol: as §3, §4

ΔGS37°C (buffer pH 6.8→SBE-β-CD), apparent free Gibbs energy of CBZ transfer [2]: −13.7 kJ∙mol^−1
Pratio (ratio of Papp with the excipient to Papp with pure buffer solution) ([3]; F127 1.33 mmol·L^−1): 0.504
Pratio (ratio of Papp with the excipient to Papp with pure buffer solution) ([3]; F127 1.83 mmol·L^−1): 0.446
Pratio (ratio of Papp with the excipient to Papp with pure buffer solution) ([3]; F127 2.30 mmol·L^−1): 0.377
Pratio (ratio of Papp with the excipient to Papp with pure buffer solution) ([3]; SBE-β-CD 6.89 mmol·L^−1): 0.224
Pratio (ratio of Papp with the excipient to Papp with pure buffer solution) ([3]; SBE-β-CD 13.78 mmol·L^−1): 0.140
Pratio (ratio of Papp with the excipient to Papp with pure buffer solution) ([3]; SBE-β-CD 20.67 mmol·L^−1): 0.100
ΔGS37°C (buffer pH 6.8→F127), apparent free Gibbs energy of CBZ transfer [4]: −10.5 kJ∙mol^−1
Free fraction of CBZ (ffree) [5]: 0.454
Pratio (ratio of Papp with the excipient to Papp with pure buffer solution) ([6]; F127 1.33 mmol·L^−1): 0.585
Pratio (ratio of Papp with the excipient to Papp with pure buffer solution) ([6]; F127 1.83 mmol·L^−1): 0.484
Pratio (ratio of Papp with the excipient to Papp with pure buffer solution) ([6]; F127 2.30 mmol·L^−1): 0.369
Pratio (ratio of Papp with the excipient to Papp with pure buffer solution) ([6]; SBE-β-CD 6.89 mmol·L^−1): 0.373
Pratio (ratio of Papp with the excipient to Papp with pure buffer solution) ([6]; SBE-β-CD 13.78 mmol·L^−1): 0.244
Pratio (ratio of Papp with the excipient to Papp with pure buffer solution) ([6]; SBE-β-CD 20.67 mmol·L^−1): 0.225
SMILES: NC(=O)N1c2ccccc2C=Cc2ccccc21 [CBZ, carbamazepine]
logP [1]: 2.58
